# Measurements from paper PMC3961306, “Comparison of the Cancer Gene Targeting and Biochemical Selectivities of All Targeted Kinase Inhibitors Approved for Clinical Use” (PLoS ONE, 2014).
# Sequences of proteins named here, by UniProt entry; tags and fusion partners are left off. Residues count along the entry.
# UniProt Q9UQM7, whole entry, stated change not applied: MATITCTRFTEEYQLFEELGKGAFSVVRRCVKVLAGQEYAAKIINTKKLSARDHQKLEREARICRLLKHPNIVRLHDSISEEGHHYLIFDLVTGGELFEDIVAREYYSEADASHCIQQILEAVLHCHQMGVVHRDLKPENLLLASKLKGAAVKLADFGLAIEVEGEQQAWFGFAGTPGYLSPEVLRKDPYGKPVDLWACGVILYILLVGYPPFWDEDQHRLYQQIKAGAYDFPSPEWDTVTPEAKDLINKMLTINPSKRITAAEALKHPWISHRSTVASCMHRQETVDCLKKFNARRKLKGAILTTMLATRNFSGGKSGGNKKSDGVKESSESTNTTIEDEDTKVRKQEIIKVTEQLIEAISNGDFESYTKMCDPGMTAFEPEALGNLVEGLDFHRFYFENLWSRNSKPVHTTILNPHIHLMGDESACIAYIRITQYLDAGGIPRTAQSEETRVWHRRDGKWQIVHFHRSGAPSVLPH
# UniProt P10721, 26-976 V654A: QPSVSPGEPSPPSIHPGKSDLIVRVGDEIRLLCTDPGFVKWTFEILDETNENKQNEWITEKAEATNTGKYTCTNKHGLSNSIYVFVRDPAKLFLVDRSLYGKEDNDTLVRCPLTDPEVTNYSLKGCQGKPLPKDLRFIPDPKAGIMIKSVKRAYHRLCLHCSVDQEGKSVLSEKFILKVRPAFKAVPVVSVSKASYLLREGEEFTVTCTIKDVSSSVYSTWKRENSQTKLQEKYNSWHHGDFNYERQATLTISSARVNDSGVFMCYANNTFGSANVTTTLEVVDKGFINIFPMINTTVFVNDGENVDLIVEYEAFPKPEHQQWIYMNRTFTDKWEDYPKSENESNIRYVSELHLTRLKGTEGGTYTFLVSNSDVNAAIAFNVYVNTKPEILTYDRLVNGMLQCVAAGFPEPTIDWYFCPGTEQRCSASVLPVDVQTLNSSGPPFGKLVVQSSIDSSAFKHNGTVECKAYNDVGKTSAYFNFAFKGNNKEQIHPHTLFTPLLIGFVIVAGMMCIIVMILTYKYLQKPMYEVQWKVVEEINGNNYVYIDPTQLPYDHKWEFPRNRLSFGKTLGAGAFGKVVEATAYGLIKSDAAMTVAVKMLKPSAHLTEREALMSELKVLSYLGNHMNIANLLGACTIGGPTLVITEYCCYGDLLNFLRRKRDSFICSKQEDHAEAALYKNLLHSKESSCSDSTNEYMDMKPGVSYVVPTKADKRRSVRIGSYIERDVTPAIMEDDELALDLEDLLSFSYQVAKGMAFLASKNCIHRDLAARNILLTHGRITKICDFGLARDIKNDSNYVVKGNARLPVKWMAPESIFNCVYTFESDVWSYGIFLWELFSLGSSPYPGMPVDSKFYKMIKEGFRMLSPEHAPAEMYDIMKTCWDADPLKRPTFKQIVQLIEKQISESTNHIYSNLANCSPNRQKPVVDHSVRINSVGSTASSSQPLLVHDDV
# UniProt O75582, whole entry, stated change not applied: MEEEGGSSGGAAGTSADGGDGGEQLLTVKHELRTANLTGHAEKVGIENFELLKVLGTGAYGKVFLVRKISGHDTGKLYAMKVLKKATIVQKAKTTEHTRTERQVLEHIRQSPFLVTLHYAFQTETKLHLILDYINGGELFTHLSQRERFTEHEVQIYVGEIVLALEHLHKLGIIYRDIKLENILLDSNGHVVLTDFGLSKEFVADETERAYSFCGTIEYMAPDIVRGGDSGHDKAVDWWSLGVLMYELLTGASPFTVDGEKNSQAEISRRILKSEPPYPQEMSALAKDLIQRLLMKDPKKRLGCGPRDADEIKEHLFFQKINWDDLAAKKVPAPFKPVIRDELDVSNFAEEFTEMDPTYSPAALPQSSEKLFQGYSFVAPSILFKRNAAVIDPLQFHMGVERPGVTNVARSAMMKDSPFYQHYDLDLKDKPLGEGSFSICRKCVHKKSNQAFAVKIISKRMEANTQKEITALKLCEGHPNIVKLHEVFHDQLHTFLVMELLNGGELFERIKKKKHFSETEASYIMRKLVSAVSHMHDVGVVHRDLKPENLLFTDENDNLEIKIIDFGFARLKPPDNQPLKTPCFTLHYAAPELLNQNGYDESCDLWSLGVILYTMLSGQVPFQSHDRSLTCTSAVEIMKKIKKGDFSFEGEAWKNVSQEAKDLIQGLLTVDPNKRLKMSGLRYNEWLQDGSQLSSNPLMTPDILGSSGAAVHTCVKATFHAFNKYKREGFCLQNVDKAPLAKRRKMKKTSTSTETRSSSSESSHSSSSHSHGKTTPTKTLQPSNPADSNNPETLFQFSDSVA
# UniProt Q9Y6R4, whole entry, stated change not applied: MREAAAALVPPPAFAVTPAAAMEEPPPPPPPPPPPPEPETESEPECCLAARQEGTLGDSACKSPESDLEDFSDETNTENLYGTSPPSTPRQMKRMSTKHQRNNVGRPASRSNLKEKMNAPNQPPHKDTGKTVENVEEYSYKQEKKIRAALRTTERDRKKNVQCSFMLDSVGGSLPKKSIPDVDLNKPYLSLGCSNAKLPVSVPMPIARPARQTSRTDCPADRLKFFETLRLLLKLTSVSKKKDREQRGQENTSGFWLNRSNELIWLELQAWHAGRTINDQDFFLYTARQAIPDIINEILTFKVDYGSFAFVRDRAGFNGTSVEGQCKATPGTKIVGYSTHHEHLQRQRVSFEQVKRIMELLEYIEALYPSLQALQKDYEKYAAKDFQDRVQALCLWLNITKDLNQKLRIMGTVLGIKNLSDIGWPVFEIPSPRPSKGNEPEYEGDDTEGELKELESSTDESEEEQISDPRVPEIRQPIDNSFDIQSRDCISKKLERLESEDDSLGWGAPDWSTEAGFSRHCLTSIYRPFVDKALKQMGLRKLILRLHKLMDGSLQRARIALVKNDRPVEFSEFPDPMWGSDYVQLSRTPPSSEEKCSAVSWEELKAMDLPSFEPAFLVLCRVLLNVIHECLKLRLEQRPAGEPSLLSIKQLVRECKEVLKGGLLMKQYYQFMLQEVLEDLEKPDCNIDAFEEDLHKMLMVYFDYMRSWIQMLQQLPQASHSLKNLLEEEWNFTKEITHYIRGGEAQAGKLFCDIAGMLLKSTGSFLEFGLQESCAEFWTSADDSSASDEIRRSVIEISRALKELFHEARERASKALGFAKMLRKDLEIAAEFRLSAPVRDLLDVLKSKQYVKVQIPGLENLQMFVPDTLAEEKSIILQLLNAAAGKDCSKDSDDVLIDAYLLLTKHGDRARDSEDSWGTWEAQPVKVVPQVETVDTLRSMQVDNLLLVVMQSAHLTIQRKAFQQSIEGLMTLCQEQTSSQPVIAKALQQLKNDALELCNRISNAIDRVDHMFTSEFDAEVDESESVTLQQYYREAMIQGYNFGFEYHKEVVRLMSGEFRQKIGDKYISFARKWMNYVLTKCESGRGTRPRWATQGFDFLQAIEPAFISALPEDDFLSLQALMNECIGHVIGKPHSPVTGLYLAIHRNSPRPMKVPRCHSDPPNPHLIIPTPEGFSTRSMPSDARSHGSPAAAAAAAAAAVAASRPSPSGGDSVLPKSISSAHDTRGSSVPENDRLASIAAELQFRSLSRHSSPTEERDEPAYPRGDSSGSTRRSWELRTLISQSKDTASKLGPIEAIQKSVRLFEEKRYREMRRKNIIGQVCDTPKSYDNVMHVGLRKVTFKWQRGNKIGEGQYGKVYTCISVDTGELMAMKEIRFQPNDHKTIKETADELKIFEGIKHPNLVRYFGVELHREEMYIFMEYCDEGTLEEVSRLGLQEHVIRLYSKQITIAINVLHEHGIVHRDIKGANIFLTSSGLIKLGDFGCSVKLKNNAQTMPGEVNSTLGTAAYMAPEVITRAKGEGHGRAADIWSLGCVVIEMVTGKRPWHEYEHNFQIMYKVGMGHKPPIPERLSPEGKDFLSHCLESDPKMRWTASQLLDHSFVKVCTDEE
# UniProt P06493, whole entry, stated change not applied: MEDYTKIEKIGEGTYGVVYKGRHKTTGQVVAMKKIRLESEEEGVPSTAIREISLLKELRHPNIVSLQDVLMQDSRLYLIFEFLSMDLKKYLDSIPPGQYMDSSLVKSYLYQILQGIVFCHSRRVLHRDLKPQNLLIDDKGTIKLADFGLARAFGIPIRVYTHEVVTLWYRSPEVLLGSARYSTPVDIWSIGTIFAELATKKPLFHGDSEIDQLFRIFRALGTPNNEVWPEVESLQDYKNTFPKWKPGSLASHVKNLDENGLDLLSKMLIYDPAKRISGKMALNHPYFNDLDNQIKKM
# UniProt Q9H2G2, whole entry, stated change not applied: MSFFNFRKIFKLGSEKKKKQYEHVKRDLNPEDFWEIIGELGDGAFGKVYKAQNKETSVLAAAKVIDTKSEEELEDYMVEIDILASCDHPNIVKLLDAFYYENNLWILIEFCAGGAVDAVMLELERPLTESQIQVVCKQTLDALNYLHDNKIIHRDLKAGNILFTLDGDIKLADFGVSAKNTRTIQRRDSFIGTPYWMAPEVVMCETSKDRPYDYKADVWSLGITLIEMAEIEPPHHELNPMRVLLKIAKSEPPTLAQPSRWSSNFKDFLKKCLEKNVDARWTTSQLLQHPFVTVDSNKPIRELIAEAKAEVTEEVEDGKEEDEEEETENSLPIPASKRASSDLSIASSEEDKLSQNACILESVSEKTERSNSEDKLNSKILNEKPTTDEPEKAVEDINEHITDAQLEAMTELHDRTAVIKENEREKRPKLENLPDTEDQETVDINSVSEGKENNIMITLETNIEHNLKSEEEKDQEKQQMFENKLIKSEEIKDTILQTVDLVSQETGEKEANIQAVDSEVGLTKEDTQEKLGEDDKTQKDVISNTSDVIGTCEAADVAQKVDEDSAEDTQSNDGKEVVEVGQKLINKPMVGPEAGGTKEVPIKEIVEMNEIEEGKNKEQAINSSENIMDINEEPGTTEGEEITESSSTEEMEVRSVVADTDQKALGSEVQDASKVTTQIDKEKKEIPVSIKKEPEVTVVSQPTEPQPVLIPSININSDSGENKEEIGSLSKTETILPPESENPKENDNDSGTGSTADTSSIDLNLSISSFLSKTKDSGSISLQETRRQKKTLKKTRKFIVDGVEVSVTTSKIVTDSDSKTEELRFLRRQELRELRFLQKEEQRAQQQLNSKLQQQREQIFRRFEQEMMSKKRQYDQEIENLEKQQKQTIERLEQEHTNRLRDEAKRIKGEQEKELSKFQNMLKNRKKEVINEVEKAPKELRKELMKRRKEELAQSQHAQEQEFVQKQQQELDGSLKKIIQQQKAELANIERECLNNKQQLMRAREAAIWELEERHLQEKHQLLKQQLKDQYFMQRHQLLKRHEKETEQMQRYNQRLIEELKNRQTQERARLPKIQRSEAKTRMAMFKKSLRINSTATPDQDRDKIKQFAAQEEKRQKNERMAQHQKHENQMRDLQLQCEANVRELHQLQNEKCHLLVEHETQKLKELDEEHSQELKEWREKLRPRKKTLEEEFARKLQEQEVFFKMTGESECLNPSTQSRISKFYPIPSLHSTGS
# UniProt P49840, whole entry, stated change not applied: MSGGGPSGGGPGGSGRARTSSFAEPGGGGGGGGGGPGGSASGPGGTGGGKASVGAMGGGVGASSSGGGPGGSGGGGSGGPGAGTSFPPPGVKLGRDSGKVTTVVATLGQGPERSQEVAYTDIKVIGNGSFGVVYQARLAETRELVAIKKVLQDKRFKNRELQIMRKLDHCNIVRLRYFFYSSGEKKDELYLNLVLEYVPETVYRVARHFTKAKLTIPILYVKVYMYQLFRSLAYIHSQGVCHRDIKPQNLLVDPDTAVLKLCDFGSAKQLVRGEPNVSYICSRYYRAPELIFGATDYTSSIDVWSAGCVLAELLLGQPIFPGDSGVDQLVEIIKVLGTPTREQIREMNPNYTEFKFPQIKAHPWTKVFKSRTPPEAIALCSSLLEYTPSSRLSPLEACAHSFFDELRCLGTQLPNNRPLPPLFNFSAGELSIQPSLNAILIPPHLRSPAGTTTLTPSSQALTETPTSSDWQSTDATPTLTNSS
# UniProt P31749, whole entry, stated change not applied: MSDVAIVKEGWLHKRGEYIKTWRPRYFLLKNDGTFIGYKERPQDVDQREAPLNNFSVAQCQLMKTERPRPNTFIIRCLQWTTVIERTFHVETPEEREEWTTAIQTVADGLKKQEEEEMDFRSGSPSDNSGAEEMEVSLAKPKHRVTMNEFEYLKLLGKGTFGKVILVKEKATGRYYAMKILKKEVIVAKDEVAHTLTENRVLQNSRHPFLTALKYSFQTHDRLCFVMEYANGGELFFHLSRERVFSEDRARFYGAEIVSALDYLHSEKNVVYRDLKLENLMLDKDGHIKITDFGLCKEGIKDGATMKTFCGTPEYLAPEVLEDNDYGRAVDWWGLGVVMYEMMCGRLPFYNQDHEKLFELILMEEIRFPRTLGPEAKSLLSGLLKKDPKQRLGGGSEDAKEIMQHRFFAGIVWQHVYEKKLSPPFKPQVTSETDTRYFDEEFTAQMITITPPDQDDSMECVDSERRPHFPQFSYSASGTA
# What was measured:
# Assay in all cases: Kinase profiling in a biochemical assay panel (mobility shift assays and ELISA), %-inhibition at 1 μM; selectivity entropy
# [1] = target: panel of more than 300 wild-type and mutant kinases (313 kinase panel) (Homo sapiens, UniProt Q9UQM7)
# [2] = target: panel of more than 300 wild-type and mutant kinases (313 kinase panel) (Homo sapiens, UniProt P10721, V654A)
# [3] = target: T1, panel of more than 300 wild-type and mutant kinases (313 kinase panel) (Homo sapiens, UniProt Q96BR1)
# T1 sequence (Q96BR1 1-496): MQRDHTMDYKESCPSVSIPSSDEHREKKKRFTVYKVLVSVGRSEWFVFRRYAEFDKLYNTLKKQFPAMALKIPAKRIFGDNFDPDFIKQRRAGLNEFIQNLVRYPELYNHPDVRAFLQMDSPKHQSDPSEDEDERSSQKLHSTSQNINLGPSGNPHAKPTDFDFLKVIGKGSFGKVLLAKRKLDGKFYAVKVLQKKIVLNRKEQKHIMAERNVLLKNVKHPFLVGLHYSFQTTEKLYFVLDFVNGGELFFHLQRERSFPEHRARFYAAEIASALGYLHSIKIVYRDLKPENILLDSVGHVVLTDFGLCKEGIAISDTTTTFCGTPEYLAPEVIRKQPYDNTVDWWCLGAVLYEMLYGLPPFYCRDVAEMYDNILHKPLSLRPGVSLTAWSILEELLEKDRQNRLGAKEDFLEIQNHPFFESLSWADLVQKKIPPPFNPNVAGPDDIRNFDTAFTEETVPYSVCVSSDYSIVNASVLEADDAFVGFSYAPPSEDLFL
# [4] = target: T2, panel of more than 300 wild-type and mutant kinases (313 kinase panel) (Homo sapiens, UniProt Q7KZI7)
# T2 sequence (Q7KZI7 1-788): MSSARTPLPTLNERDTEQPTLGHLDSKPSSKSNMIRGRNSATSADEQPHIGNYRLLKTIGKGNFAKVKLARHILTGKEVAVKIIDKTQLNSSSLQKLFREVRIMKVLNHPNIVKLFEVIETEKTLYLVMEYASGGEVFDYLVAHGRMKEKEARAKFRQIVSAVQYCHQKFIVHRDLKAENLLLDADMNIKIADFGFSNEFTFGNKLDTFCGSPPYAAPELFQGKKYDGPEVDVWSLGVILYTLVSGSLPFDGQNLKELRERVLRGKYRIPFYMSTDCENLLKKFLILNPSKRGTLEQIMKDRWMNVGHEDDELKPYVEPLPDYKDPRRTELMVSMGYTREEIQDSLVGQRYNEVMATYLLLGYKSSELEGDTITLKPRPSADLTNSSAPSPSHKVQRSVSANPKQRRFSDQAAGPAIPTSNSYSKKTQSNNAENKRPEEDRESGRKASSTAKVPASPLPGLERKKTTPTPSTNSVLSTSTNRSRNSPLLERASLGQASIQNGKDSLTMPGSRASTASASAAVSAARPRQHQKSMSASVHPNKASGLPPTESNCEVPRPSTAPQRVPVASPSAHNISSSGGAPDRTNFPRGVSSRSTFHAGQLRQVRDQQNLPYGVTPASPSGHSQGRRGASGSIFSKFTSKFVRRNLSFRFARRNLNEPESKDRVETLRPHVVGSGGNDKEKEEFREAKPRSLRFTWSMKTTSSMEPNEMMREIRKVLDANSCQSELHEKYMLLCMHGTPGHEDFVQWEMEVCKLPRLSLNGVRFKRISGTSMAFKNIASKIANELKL
# [5] = target: panel of more than 300 wild-type and mutant kinases (313 kinase panel) (Homo sapiens, UniProt O75582)
# [6] = target: panel of more than 300 wild-type and mutant kinases (313 kinase panel) (Homo sapiens, UniProt Q9Y6R4)
# [7] = target: T3, panel of more than 300 wild-type and mutant kinases (313 kinase panel) (Homo sapiens, UniProt Q9HC98)
# T3 sequence (Q9HC98 1-313): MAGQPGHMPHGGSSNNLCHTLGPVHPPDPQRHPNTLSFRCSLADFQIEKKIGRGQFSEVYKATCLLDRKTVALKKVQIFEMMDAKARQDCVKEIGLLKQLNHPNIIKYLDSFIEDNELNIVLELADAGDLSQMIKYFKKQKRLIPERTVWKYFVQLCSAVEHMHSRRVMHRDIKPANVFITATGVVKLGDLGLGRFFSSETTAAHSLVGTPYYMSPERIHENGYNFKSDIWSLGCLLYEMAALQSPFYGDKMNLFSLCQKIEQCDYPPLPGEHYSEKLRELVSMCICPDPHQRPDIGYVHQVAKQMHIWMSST
# [8] = target: panel of more than 300 wild-type and mutant kinases (313 kinase panel) (Homo sapiens, UniProt P06493)
# [9] = target: panel of more than 300 wild-type and mutant kinases (313 kinase panel) (Homo sapiens, UniProt Q00526)
# [10] = target: panel of more than 300 wild-type and mutant kinases (313 kinase panel) (Homo sapiens, UniProt Q9H2G2)
# [11] = target: panel of more than 300 wild-type and mutant kinases (313 kinase panel) (Homo sapiens, UniProt P49840)
# [12] = target: panel of more than 300 wild-type and mutant kinases (313 kinase panel) (Homo sapiens, UniProt P31749)
Compound,"%-inhibition, CaMK2α ([1]; 1 µM) [%]",%-inhibition of KIT(V654A) ([2]; 1 µM) [%],%-inhibition of SGK3 ([3]; 1 µM) [%],%-inhibition of MARK2 ([4]; 1 µM) [%],%-inhibition of MSK1 ([5]; 1 µM) [%],%-inhibition of MAP3K4 ([6]; 1 µM) [%],%-inhibition of NEK6 ([7]; 1 µM) [%],"%-inhibition, CDC2/CycB1 ([8]; 1 µM) [%]","%-inhibition, CDK3/CycE1 ([9]; 1 µM) [%]",%-inhibition of SLK ([10]; 1 µM) [%],%-inhibition of GSK3α ([11]; 1 µM) [%],"%-inhibition, AKT1 ([12]; 1 µM) [%]",also measured
CNC(=O)c1ccccc1Sc1ccc2c(/C=C/c3ccccn3)n[nH]c2c1 [axitinib],–,–,–,–,–,–,–,–,–,–,–,–,"%-inhibition, CaMK2α ([1]; kinase CaMK2α, 1 μM compound): -6%; %-inhibition of KIT(V654A) ([2]; kinase KIT(V654A), compound at 1 μM): 99%; %-inhibition of SGK3 ([3]; kinase SGK3, 1 μM): -6%; %-inhibition of MARK2 ([4]; kinase MARK2, compound at 1 μM): 78%; %-inhibition of MSK1 ([5]; kinase MSK1, 1 μM): 3.59%; %-inhibition of MAP3K4 ([6]; kinase MAP3K4, compound at 1 μM): 27%; %-inhibition of NEK6 ([7]; kinase NEK6, 1 μM): -5.49%; %-inhibition, CDC2/CycB1 ([8]; kinase CDC2/CycB1, 1 μM compound): 5%; %-inhibition, CDK3/CycE1 ([9]; kinase CDK3/CycE1, 1 μM compound): -10%; %-inhibition of SLK ([10]; kinase SLK, 1 μM): 82%; %-inhibition of GSK3α ([11]; kinase GSK3α, compound at 1 μM): 11%; %-inhibition, AKT1 ([12]; kinase AKT1, 1 μM compound): 0.315%"
COc1cc2ncnc(Nc3ccc(F)c(Cl)c3)c2cc1OCCCN1CCOCC1 [gefitinib],0.793,-1.42,2.35,16,7,-13,2.37,5.41,3,73,-6,3.35,–
C[C@@H]1CCN(C(=O)CC#N)C[C@@H]1N(C)c1ncnc2[nH]ccc12 [tofacitinib],-2.59,-4.5,-0.183,41,9,-3.74,-1.14,-1.16,-10,7,7,-6.52,–
